Assay results as given in PubChem BioAssay AID602363 (Broad Institute, 2012).
The entries are a selection whose mix differs from that of the whole data set. The source made the active and inactive calls.

Assay: modulators of yeast start codon fidelity, primary screen, whole organism, S. cerevisiae, single point, plate reader (AID 602363)
Conditions: S. cerevisiae UUG-firefly luciferase reporter, luminescence/redox ratio; at 18.7 µM; hits give high values

SMILES	activity score
O=C(OC1CN2CCC1CC2)C1c2ccccc2Oc2ccccc21 (stereo not given)	inactive: -16.1%
O=c1[nH]c2ccccc2n1C1CCN(C(c2cc3ccccc3o2)c2nnnn2C2CCCCC2)CC1 (stereo not given)	inactive: -13.3%
O=C(NCC1(N2CCCCC2)CCCCC1)c1ccc(Cl)s1	inactive: 5.59%
CN(C)c1cccc(C(=O)NCC2(N3CCCCC3)CCCCC2)c1	inactive: -14.8%
CCCCn1nnnc1C(c1ccccc1OC(F)(F)F)N1CCC(n2c(=O)[nH]c3ccccc32)CC1 (stereo not given)	inactive: -9.99%
CCCCn1nnnc1C(c1ccnc2ccccc12)N1CCC(n2c(=O)[nH]c3ccccc32)CC1 (stereo not given)	inactive: 20.5%
O=C(NCC1(N2CCOCC2)CCCCC1)c1cc(F)c(F)cc1Cl	inactive: 9.54%
CCC(c1nnnn1C(C)(C)C)N1CCC(n2c(=O)[nH]c3ccccc32)CC1 (stereo not given)	inactive: -0.153%
COc1cc(OC)c(C(=O)NCC2(N(C)C)CCCCC2)cc1OC	inactive: -18%
O=C(NCC1(N2CCCCC2)CCCCC1)c1cncc(Br)c1	inactive: -10.7%
CN1CCC(Nc2cccc(F)c2)CC1	inactive: -11.1%
CCCOc1ccc(C(=O)NCC2(N(C)C)CCCCC2)cc1OC	inactive: -13.5%
Cc1ccc(C(=O)NCC2(N(C)C)CCCCC2)o1	inactive: 12.8%
COc1ccc(C(c2nnnn2C2CCCC2)N2CCC(n3c(=O)[nH]c4ccccc43)CC2)cc1 (stereo not given)	inactive: 24.7%
O=C(NCC1(N2CCCCC2)CCCCC1)c1ccc(OC(F)F)cc1	inactive: -12.2%
CC(C)(C)n1nnnc1C(c1ccccc1OC(F)(F)F)N1CCC(n2c(=O)[nH]c3ccccc32)CC1 (stereo not given)	inactive: -11.1%
CSc1ccc(C(=O)NCC2(N3CCOCC3)CCCCC2)cc1	inactive: -25.3%
N#CC1(Nc2ccccc2)CCN(CCc2ccccc2)CC1	inactive: -4.03%
O=c1[nH]c2ccccc2n1C1CCN(C(c2ccccc2OC(F)(F)F)c2nnnn2C2CCCC2)CC1 (stereo not given)	inactive: -1.25%
CCN1CCC(Nc2ccc(Cl)cc2)CC1	inactive: 6.96%
O=C(NCC1(N2CCCCC2)CCCCC1)c1cccc(C(F)(F)F)c1	inactive: -1.65%
CCCCn1nnnc1C(c1cccc2ccccc12)N1CCC(n2c(=O)[nH]c3ccccc32)CC1 (stereo not given)	inactive: -12.3%

SMILES	activity score
CN1CCN(CCOC(=O)C(O)(c2ccccc2)c2ccccc2)CC1	inactive: -4.27%
COc1cc(C(=O)NCC2(N3CCCCC3)CCCCC2)ccc1OC(F)F	inactive: -27.5%
O=C(NCC1(N2CCOCC2)CCCCC1)c1cc(=O)[nH]c2ccccc12	inactive: 13.2%
CC(C)(C)OC(=O)N1CCC(N(C(=O)c2ccccc2)c2ccc(Cl)cc2)CC1	inactive: -17.8%
N#Cc1ccc(C(=O)NCC2(N3CCCCC3)CCCCC2)cc1	inactive: -12.6%
CCCN1CCC(Nc2cc(OC)cc(OC)c2)CC1	inactive: -1.89%
O=c1[nH]c2ccccc2n1C1CCN(C(c2ccccc2)c2nnnn2C2CCCC2)CC1 (stereo not given)	inactive: -12.6%
c1ccc(CN2CCC(Nc3ccccc3)CC2)cc1	inactive: -22.7%
CN(C)C1(CNC(=O)c2cccc(C#N)c2)CCCCC1	inactive: -20.5%
CC(C)(C)n1nnnc1C(c1cccc2ccccc12)N1CCC(n2c(=O)[nH]c3ccccc32)CC1 (stereo not given)	inactive: -6.01%
O=C(NCC1(N2CCOCC2)CCCCC1)c1cc(Br)ccc1Cl	inactive: -13.7%
COc1cc(C(=O)NCC2(N3CCOCC3)CCCCC2)cc(OC)c1C	inactive: 13%
CCCCn1nnnc1C(c1ccccc1)N1CCC(n2c(=O)[nH]c3ccccc32)CC1 (stereo not given)	inactive: 24.2%
O=c1[nH]c2ccccc2n1C1CCN(C(c2ccnc3ccccc23)c2nnnn2C2CCCC2)CC1 (stereo not given)	inactive: -15.2%
O=c1[nH]c2ccccc2n1C1CCN(C(c2cccs2)c2nnnn2C2CCCCC2)CC1 (stereo not given)	inactive: -17.8%
N/C(=N\O)c1c(N)no[n+]1[O-]	inactive: -14.1%
COc1cccc(C(c2nnnn2C(C)(C)C)N2CCC(n3c(=O)[nH]c4ccccc43)CC2)c1OC (stereo not given)	inactive: -3%
CCOC(=O)N1CCC(Nc2ccc(C)cc2)CC1	inactive: -13%
CCCCn1nnnc1C(c1cccc(OC)c1OC)N1CCC(n2c(=O)[nH]c3ccccc32)CC1 (stereo not given)	inactive: 25.2%
O=c1[nH]c2ccccc2n1C1CCN(C(c2cccs2)c2nnnn2C2CCCC2)CC1 (stereo not given)	inactive: -7.85%
CN1CCC(Nc2ccc(F)c(Cl)c2)CC1	inactive: 2.76%
CCOc1ncccc1C(=O)NCC1(N2CCOCC2)CCCCC1	inactive: -8.39%

SMILES	activity score
CCCOc1ccc(C(=O)NCC2(N(C)C)CCCCC2)cc1	inactive: -19.1%
O=c1[nH]c2ccccc2n1C1CCN(C(c2cc3ccccc3o2)c2nnnn2C2CCCC2)CC1 (stereo not given)	inactive: -8.8%
O=C(O)C1(Nc2ccccc2)CCN(Cc2ccccc2)CC1	inactive: -13.2%
CCC(CO)(C(=O)OC1CN2CCC1CC2)c1ccccc1 (stereo not given)	inactive: 2.49%
COc1cccc(C(c2nnnn2C2CCCC2)N2CCC(n3c(=O)[nH]c4ccccc43)CC2)c1OC (stereo not given)	inactive: -0.859%
COc1cc(OC)cc(C(=O)NCC2(N3CCOCC3)CCCCC2)c1	inactive: 5.92%
COc1cccc(C(=O)N(c2cc(C)cc(C)c2)C2CCN(C(=O)OC(C)(C)C)CC2)c1	inactive: 7.11%
CN1CCC(Nc2ccc(Cl)cc2)CC1	inactive: -19.5%
O=c1[nH]c2ccccc2n1C1CCN(C(c2ccnc3ccccc23)c2nnnn2C2CCCCC2)CC1 (stereo not given)	inactive: -13.9%
COc1cc(OC)cc(C(=O)NCC2(N3CCCCC3)CCCCC2)c1	inactive: -9.69%
CCC(c1nnnn1C1CCCCC1)N1CCC(n2c(=O)[nH]c3ccccc32)CC1 (stereo not given)	inactive: 2%
CC(=O)N(c1ccccc1)C1CCNCC1	inactive: -28.1%
COc1cccc(C(c2nnnn2C2CCCCC2)N2CCC(n3c(=O)[nH]c4ccccc43)CC2)c1OC (stereo not given)	inactive: -10.6%
Cc1ccc(NC2(C#N)CCN(Cc3ccccc3)CC2)cc1	inactive: -9.61%
Fc1ccccc1NC1CCN(Cc2ccccc2)CC1	inactive: 0.627%
Cc1ccc(C(=O)NCC2(N3CCCCC3)CCCCC2)o1	inactive: 0.514%
CC(C)(C)n1nnnc1C(c1ccnc2ccccc12)N1CCC(n2c(=O)[nH]c3ccccc32)CC1 (stereo not given)	inactive: 7.29%
COc1ccc(C(c2nnnn2C2CCCCC2)N2CCC(n3c(=O)[nH]c4ccccc43)CC2)cc1 (stereo not given)	inactive: 25.6%
Cc1ccccc1NC1(C#N)CCN(Cc2ccccc2)CC1	inactive: -8.16%
Cn1c(=O)[nH]cc(N(CCCl)CCCl)c1=O	inactive: -13%
O=C(NCC1(N2CCCCC2)CCCCC1)c1ccco1	inactive: -10.5%
